According to US20050203011A1, “Mitigating symptoms and behaviors of substance abuse by modulating GDNF or BDNF pathway activity” (The Regents of the University of California, priority 2003, published 2005):

Assays:
[1] = in vivo; cited from earlier work
Purkinje cell = conditions: 40 mg/kg ibogaine; cited from earlier work
neurons = conditions: systemic i.p. ibogaine, 25 μm brain slices; data not shown
DBA mice = experiment: Conditioned place preference test (CPP); format: in vivo, mouse; conditions: for locomotor activity: in place preference apparatus
Procedure: The CPP apparatus (Med Associates) consisted of two visually distinctive conditioning compartments connected by a smaller center compartment. The CPP procedure consisted of three phases: preconditioning (Day 1), conditioning (Days 2-9), and post-conditioning (Day 10). On Day 1, mice were placed into the center compartment and allowed free access to both conditioning compartments for 30 minutes. To test whether ibogaine is aversive or rewarding, on Day 2, mice received i.p. injections of either saline or 40 mg/kg ibogaine. Mice were given access to one conditioning chamber for 5 minutes immediately after injection or 3 h after injection. […] This daily alternation occurred until subjects received 4 pairings each of ibogaine and saline with their respective conditioning chambers. Control subjects received saline in both conditioning chambers. To test whether ibogaine alters ethanol-induced CPP, on Day 2, ibogaine (40 mg/kg, i.p.), or saline, was injected 3 hours prior to injection of ethanol (2 g/kg, 20% solution). Ethanol treatment was followed by placement within one conditioning chamber, alternated with saline treatment and placement into the other conditioning chamber, as described above. On Day 10, animals were tested for CPP by allowing free access to both conditioning compartments for 30 minutes. Photocell counts provided a measure of locomotor activity as well as time spent in each compartment

12-methoxyibogamine [ibogaine]
half-life [1]: 1 to 2 h | Purkinje cell death (Purkinje cell): not to produce Purkinje cell death | neuronal cell death (neurons): no evidence of neuronal cell death | ibogaine-conditioned place preference or aversion (DBA mice; 40 mg/kg i.p., injected immediately or 3 hours before conditioning): No significant ibogaine-conditioned preference or aversion | locomotor activity (DBA mice; ibogaine alone): no change | locomotor activity (DBA mice; ibogaine together with ethanol): no change
